# Measured values from PubChem BioAssay AID624172 (National Center for Advancing Translational Sciences (NCATS), 2012).
# By UniProt entry, the sequences of proteins in these tests, tags left out.
# UniProt P43220, whole entry, looked up: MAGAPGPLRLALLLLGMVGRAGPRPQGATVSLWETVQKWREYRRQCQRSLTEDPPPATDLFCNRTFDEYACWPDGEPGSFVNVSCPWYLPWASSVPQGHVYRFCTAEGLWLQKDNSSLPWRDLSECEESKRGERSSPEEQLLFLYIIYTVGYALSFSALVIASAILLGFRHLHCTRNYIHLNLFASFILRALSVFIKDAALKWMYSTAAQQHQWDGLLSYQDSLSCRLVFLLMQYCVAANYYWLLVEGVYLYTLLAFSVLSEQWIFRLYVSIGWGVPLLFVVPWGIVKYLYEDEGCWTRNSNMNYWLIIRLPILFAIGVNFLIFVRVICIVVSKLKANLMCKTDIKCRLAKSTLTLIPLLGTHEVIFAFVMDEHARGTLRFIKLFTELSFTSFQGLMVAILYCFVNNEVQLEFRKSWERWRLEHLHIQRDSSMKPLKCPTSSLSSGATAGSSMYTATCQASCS
# The entries are a selection whose mix differs from that of the whole data set. The source made the active and inactive calls. Calls come from the whole dose curve; as a rule, active = well fitted activation curve with a large enough effect; inconclusive = small, poorly fitted or top-dose-only effect; inactive = no such curve, though single readings can be large or run the other way.
# Biological target: Glucagon-like peptide 1 receptor (Homo sapiens) (UniProt P43220)
# Experiment: qHTS of GLP-1 Receptor Agonists; note: % of control where 0% means no effect
# Conditions: HEK293 GLP-1R CRE-luciferase, luminescence, 4-6 h, cells express a hypersensitive GLP-1R form; at 45.6 µM (top of the series) unless noted
# Excerpt: The overall goal of this project was to develop a novel assay for discovering small molecule ligands for class B1 G protein-coupled receptors (GPCRs). Very few agonists (or inverse agonists) with generally weak activity for this entire group of physiologically important receptors are known to date. To establish proof-of-principle that this critical bottleneck can be overcome with a suitable screening approach, our studies focused on the class B1 receptor for glucagon-like peptide-1 (GLP-1R), a potential therapeutic target for diabetes and neurodegenerative disease.
# The assay was developed in a "mix and measure" format using a cell-based functional readout. Toward this goal, stably transfected HEK293 cell clones were established that co-express (i) a cAMP-responsive luciferase reporter gene, and (ii) GLP-1Rs that upon ligand interaction either stimulate (agonists) or inhibit (inverse agonists) luciferase activity. In different cell lines to be used for screening, expressed GLP-1Rs are specifically optimized for high sensitivity detection of either weak agonists (hypersensitive receptor) or inverse agonists (constitutively active receptor mutant). In addition, control cell lines were developed that express either the cAMP-responsive reporter gene without recombinant GLP-1Rs (enabling initial exclusion of GLP-1R independent effects of candidate probes), or the reporter gene together with wild type GLP-1Rs (for confirmation of probe activity at this receptor), or the reporter gene in combination with the constitutively active orphan receptor GPR119 (enabling initial exclusion of GLP-1R independent inhibitory effects of candidate inverse agonists).
# To that end, this assay was optimized for 1536-well format and screened against the MLSMR.
# NIH Molecular Libraries Probe Production Network [MLPCN]
# NIH Chemical Genomics Center [NCGC]
# PI Name: Martin Beinborn, Tufts Medical Center
# In a white solid 1536-well plate, 6 uL of cells are dispensed in DMEM without phenol red, 10% Nu serum, and 1% pen-strep medium. The plates are then incubated for 12 hours at 37 deg C at 5% CO2 before 23 nL of compounds are added. After a 4-6 hr incubation at37 deg C and 5% CO2, 3 uL of detection reagent are added and after a 12 min incubation at RT, a luminescent read is obtained on the ViewLux.
row,SMILES,activation
1,O=[N+]([O-])c1ccc2c(c1)nnn2O,inactive: 3.03%
2,CN(C(=O)Cc1ccccc1)[C@@H]1CC[C@]2(CCCO2)C[C@H]1N1CCCC1,inactive: -4.38%
3,CCOP1(=S)c2c(C)nn(CCC#N)c2N=C(c2ccc(F)cc2)N1C (centres undefined),inactive: 5.48%
4,N#CCCN(C(=O)COC(=O)C(O)(c1ccccc1)c1ccccc1)c1ccc(F)cc1,inactive: 2.12%
5,CS(=O)(=O)c1cc([N+](=O)[O-])c2no[n+]([O-])c2c1,inactive: -0.481%
6,O=P(Nc1nccs1)(c1ccccc1)c1nc2ccccc2s1 (centres undefined),inactive: 10.5%
7,O=P(Nc1nccs1)(Oc1ccccc1)Oc1ccccc1,inactive: 0.199%
8,CCOP1(=S)c2c(C)nn(CCC#N)c2N=C(c2ccccc2F)N1C (centres undefined),inactive: 2.43%
9,O=C(O)COc1ccc([As](=O)(O)O)cc1[N+](=O)[O-],inactive: 4.34%
10,Nc1ccccc1[As](=O)(O)c1ccccc1,inactive: 1.04%
11,CCCOP(=S)(Nc1nc(N)cc(=O)[nH]1)OCCC,inactive: 2.6%
12,Cc1ccc(NCCc2c([N+](=O)[O-])cc([N+](=O)[O-])cc2[N+](=O)[O-])cc1,inactive: -31.6%
13,Nc1cccc2c([As](=O)(O)O)cccc12,inactive: -0.282%
14,CCOP(=O)(Nc1cccc2ccccc12)OCC,inactive: 9.65%
15,COc1cc(C2NCCC3(OCCO3)C2(C)C)cc(OC)c1OC (centres undefined),inactive: -3.72%
16,CS(=O)(=O)c1ccc(Cl)c(NC(=O)COC(=O)C(O)(c2ccccc2)c2ccccc2)c1,inactive: -2.14%
17,COc1cc(C(=O)NCC2(N3CCOCC3)CCCCC2)cc(Cl)c1OC(C)C,inactive: 16.7%
18,O=[As](O)(O)c1cccnc1,inactive: -2.34%
19,CN(C(=O)Cc1ccc(Cl)c(Cl)c1)[C@@H]1CC[C@]2(CCCO2)C[C@H]1N1CCCC1,inactive: -0.656%
20,O=C(OC1CN2CCC1CC2)c1ccc(Cl)cc1 (centres undefined),inactive: 2.48%
21,O=[As](O)(c1cccc(O)c1)c1cccc(O)c1,inactive: -0.427%
22,Cc1cccc(OCC(=O)OC2CN3CCC2CC3)c1 (centres undefined),inactive: 0.286%
23,COc1ccccc1CNC(=O)COC(=O)C(O)(c1ccccc1)c1ccccc1,inactive: 3.29%

row,SMILES,activation
1,CC1(CBr)Cn2c(nc3ccccc3c2=O)S1 (centres undefined),inactive: -5.5%
2,CN(C(=O)Cc1ccc(Cl)c(Cl)c1)[C@@H]1CCCC[C@H]1N1CCCC1,inactive: 6.66%
3,CC(C)/C=N\N=C(\N)N[N+](=O)[O-],inactive: -1.83%
4,CN(CCCl)Cc1cc(Cl)c(NC2=NCCN2)c(Cl)c1,inactive: 9.13%
5,CCOP(=O)(Nc1ccc(C)cn1)OCC,inactive: -4.64%
6,CCOP(=O)(NC(=NC(C)c1ccccc1)NC(C)c1ccccc1)OCC (centres undefined),inactive: 2.86%
7,CCC1=CC2Cc3nc4ccc(Cl)cc4c(N)c3C(C1)C2 (centres undefined),inactive: -0.254%
8,O=P1(Nc2ccccn2)COc2ccccc2OC1,inactive: -11%
9,CC(C)(C)C(=O)NC(Sc1ncccn1)C(Cl)(Cl)Cl (centres undefined),inactive: 0.503%
10,Clc1n[nH]nc1-c1nn[nH][15n]1,inactive: 0.341%
11,O=P1(N(CCCl)CCCl)NCCC(C(F)(F)F)O1 (centres undefined),inactive: -1.7%
12,O=P1(Nc2ncccn2)COc2ccccc2OC1,inactive: -10%
13,Cc1ccc(S(=O)(=O)N(CCCN)CCCc2c(C)nc(N)[nH]c2=O)cc1,inactive: -1.37%
14,NS(=O)(=O)c1cccc(NC(=O)COC(=O)C(O)(c2ccccc2)c2ccccc2)c1,inactive: 1.1%
15,O=P1(Nc2ccc(Br)cn2)COc2ccccc2OC1,inactive: -16.3%
16,Cc1ccc(OCC(=O)OC2CN3CCC2CC3)cc1 (centres undefined),inactive: 3.8%
17,O=[As](O)(c1cccs1)c1cccs1,inactive: -8.61%
18,Nc1cccc([As](=O)(O)c2ccccc2)c1,inactive: 2.11%
19,Cc1ccc(C(=O)OC2CN3CCC2CC3)cc1 (centres undefined),inactive: 1.49%
20,CC1CCC(C(C)C)C(OP(=O)(Nc2ccccn2)c2ccccc2)C1 (centres undefined),inactive: 1.3%
21,Cc1nn(-c2ccccc2)c2c1P(=O)(N1CCOCC1)N(C)C(c1ccccc1)=N2 (centres undefined),inactive: 2.12%
22,CCCC1OP(=O)(Nc2ccccc2)OCC1CC (centres undefined),inactive: 12%
23,O=C(/C=C/c1ccccc1)OC1CN2CCC1CC2 (centres undefined),inactive: 10.8%

row,SMILES,activation
1,CN(C)C1(CNC(=O)c2ccc(S(C)(=O)=O)cc2)CCCCC1,inactive: -0.219%
2,CCOC(=O)Nc1cccc([As](=O)(O)O)c1,inactive: 3.13%
3,O=[N+]([O-])c1ccc(Nc2ccc(Oc3ccc([N+](=O)[O-])cc3[N+](=O)[O-])cc2)c([N+](=O)[O-])c1,inactive: 5.7%
4,Cc1cc(SC(NC=O)C(Cl)(Cl)Cl)ncn1 (centres undefined),inactive: 1.4%
5,O=P(Nc1ccccn1)(c1cccc2ccccc12)c1cccc2ccccc12,inactive: 16.7%
6,CC1CCNP(=O)(N(CCCl)CCCl)O1 (centres undefined),inactive: -8.46%
7,O=C(O)C(O)c1ccc(N(CCCl)CCCl)cc1 (centres undefined),inactive: -1.7%
8,CCOC(=O)Nc1ccc([As](=O)(O)O)c(O)c1,inactive: -2.46%
9,Cc1cc(SC(NC(=O)c2ccccc2)C(Cl)(Cl)Cl)nc(C(C)C)n1 (centres undefined),inactive: 0.116%
10,CCCCOc1ccc(C(=O)NCC2(N3CCCCC3)CCCCC2)cc1OC,inactive: 12.2%
11,COP(=O)(OC)N1CC1c1ccccc1 (centres undefined),inactive: 0.905%
12,CCOC(=O)c1ccc(NC(=O)C(C)(CCl)SC)cc1 (centres undefined),inactive: 8.07%
13,CSc1ccc(Nc2c([N+](=O)[O-])cc([N+](=O)[O-])cc2[N+](=O)[O-])cc1,inactive: -2.42%
14,O=C(OC1CN2CCC1CC2)c1cccc([N+](=O)[O-])c1 (centres undefined),inactive: 0.633%
15,CCC(C)N(CC(C)C)C(=S)SC(NC(C)=O)C(Cl)(Cl)Cl (centres undefined),inactive: -6.82%
16,COC(=O)C1(C)COP(=O)(N2CCCC2)OC1 (centres undefined),inactive: -4.08%
17,COP1(=S)c2c(C)nn(CCC#N)c2N=C(c2ccc(F)cc2)N1C (centres undefined),inactive: 18.1%
18,O=C(Nc1ccncc1[N+](=O)[O-])c1ccc([N+](=O)[O-])cc1[N+](=O)[O-],inactive: -0.147%
19,O=C(COc1ccccc1)OC1CN2CCC1CC2 (centres undefined),inactive: -5.95%
20,O=C(O)C(=O)c1ccc(N(CCCl)CCCl)cc1,inactive: -2.52%
21,COc1ccc(N/C(=N/P(=O)(N2CCOCC2)N2CCOCC2)N2CCOCC2)cc1,inactive: 0.557%
22,O=[N+]([O-])c1cc(Oc2ccc([N+](=O)[O-])cc2C(F)(F)F)cc([N+](=O)[O-])c1,inactive: -1.59%
23,Cc1cc(=O)[nH]c(N[N+](=O)[O-])n1,inactive: 1.6%

row,SMILES,activation
1,O=C(OC1CN2CCC1CC2)C12CC3CC(CC(C3)C1)C2 (centres undefined),inactive: 18.1%
2,Cc1c2c(nc3ccccc13)SC(C(Cl)Cl)C2 (centres undefined),inactive: 21.7%
3,COc1cc(I)ccc1[As](=O)(O)O,inactive: 6.49%
4,COc1ccc2nc(NP(=O)(c3ccccc3)c3ccccc3)sc2c1,inactive: 1.29%
5,O=P1(N(CCCl)CCCl)OCCCN1CCCl (centres undefined),inactive: -7.04%
6,O=P1(N(CCCl)CCCl)Nc2ccccc2N1,inactive: 21.2%
7,CC(C)c1ccc(OP(=O)(Nc2ccccn2)Oc2ccccc2F)cc1 (centres undefined),inactive: 1.28%
8,COC(=O)C1(C)COP(=O)(N2CCCCCC2)OC1 (centres undefined),inactive: -3.19%
9,ClCCSc1nnc(-c2cccnc2)o1,inactive: -1.07%
10,O=[N+]([O-])c1cc([N+](=O)[O-])c(-c2ccn[nH]2)s1,inactive: -0.968%
11,CCN(CC)C(=S)SC(NC=O)C(Cl)(Cl)Cl (centres undefined),inactive: -6.44%
12,O=C(OC1CN2CCC1CC2)c1cccc2[nH]cnc12 (centres undefined),inactive: 0.0994%
13,CC(C)NC(=O)NP(=O)(Oc1ccccc1)Oc1ccccc1,inactive: 3.6%
14,COc1cc(C(=O)NCC2(N3CCOCC3)CCCCC2)ccc1OCC(C)C,inactive: 10.3%
15,O=[N+]([O-])c1ccc(-c2cc([N+](=O)[O-])c(O)c([N+](=O)[O-])c2)cc1,inactive: -1.64%
16,O=[As](O)(c1ccc(O)cc1)c1ccccc1O,inactive: 5.14%
17,C[As](=O)(O)c1cccc(C(=O)O)c1,inactive: -11.1%
18,Cc1ccc2nc3c(c(C)c2c1)CC(C(Cl)Cl)S3 (centres undefined),inactive: 4.85%
19,Cc1ccc(OP(=O)(Nc2ccc([N+](=O)[O-])cn2)Oc2ccc(C)cc2)cc1,inactive: -4.17%
20,[N-]=[N+]=NC1CCCCC1NC(=O)c1cc([N+](=O)[O-])cc([N+](=O)[O-])c1 (centres undefined),inactive: 3.4%
